Source: ChEMBL document CHEMBL5042474, “Structure-Guided Discovery of Potent and Selective DYRK1A Inhibitors” (J Med Chem, 2021)

The chains behind the UniProt entries cited, without tags or fusion partners. Where a name states a change or a piece, a line headed by the entry shows the natural chain unless it says otherwise.
UniProt P49760, whole entry, looked up: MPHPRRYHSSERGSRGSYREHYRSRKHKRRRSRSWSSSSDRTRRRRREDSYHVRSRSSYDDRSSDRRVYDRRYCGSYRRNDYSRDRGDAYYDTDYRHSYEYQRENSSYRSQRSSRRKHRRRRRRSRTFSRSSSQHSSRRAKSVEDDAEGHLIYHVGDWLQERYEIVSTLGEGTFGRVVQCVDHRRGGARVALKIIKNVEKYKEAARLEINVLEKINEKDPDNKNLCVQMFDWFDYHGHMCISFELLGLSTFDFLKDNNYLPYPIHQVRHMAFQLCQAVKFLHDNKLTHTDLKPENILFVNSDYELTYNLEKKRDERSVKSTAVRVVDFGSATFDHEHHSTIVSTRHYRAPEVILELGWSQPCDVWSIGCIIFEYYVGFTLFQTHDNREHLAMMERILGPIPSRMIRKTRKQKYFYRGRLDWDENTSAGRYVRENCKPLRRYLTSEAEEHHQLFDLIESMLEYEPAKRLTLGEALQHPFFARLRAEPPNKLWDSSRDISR
UniProt P49759: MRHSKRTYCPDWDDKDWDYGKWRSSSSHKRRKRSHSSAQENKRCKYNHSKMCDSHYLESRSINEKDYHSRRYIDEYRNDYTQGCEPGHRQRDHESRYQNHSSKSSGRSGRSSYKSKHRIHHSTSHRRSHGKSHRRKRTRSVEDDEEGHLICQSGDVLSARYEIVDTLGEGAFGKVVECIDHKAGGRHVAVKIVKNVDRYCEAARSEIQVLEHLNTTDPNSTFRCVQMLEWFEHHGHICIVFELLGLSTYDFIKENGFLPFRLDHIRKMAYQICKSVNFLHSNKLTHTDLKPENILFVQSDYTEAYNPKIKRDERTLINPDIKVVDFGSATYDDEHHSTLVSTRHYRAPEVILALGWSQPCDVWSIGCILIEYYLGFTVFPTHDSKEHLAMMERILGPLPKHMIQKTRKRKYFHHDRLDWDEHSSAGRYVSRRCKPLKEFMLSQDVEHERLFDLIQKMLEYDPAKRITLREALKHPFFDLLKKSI
UniProt Q9Y463, whole entry, looked up: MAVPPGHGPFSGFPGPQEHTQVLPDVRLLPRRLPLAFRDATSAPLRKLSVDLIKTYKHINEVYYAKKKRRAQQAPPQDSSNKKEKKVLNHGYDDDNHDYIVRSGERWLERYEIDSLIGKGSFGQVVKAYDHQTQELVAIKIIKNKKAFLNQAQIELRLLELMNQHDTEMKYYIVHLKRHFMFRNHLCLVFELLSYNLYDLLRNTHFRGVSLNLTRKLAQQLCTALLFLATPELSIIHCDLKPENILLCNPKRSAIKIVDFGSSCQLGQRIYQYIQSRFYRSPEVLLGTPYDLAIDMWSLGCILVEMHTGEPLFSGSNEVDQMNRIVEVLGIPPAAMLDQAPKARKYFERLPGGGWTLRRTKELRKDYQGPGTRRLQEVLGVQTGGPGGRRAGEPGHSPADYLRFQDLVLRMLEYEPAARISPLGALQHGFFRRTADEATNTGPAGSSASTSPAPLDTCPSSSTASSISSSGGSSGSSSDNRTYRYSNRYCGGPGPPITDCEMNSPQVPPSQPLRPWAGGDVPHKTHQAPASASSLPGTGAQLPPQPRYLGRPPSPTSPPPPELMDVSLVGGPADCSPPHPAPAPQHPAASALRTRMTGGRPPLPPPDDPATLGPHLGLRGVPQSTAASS
UniProt Q9HAZ1: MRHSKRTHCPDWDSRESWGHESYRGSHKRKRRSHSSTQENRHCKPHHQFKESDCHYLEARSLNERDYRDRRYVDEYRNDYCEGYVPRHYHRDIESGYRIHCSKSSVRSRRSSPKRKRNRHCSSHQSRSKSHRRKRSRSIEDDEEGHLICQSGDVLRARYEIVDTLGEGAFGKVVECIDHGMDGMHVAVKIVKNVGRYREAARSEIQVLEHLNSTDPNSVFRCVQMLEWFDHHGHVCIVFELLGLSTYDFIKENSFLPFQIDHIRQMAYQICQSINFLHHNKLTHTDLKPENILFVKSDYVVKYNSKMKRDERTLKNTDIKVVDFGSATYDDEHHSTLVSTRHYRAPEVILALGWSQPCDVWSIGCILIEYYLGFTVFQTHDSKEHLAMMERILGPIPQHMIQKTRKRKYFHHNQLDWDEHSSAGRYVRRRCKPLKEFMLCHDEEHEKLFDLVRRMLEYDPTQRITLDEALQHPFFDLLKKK

How the values were obtained:
[1] = molecular target: Dual specificity protein kinase CLK2 (Homo sapiens) (UniProt P49760); test: Binding affinity to CLK2 (unknown origin) assessed as binding constant
[2] = molecular target: Dual specificity protein kinase CLK1 (Homo sapiens) (UniProt P49759); test: Binding affinity to CLK1 (unknown origin) assessed as binding constant
[3] = molecular target: Dual specificity tyrosine-phosphorylation-regulated kinase 1B (Homo sapiens) (UniProt Q9Y463); test: Binding affinity to DYRK1B (unknown origin) assessed as binding constant
[4] = molecular target: Dual specificity protein kinase CLK4 (Homo sapiens) (UniProt Q9HAZ1); test: Binding affinity to CLK4 (unknown origin) assessed as binding constant

## Cc1nc2ccc(-c3cc(N)nc(N)c3)nc2n1C1CC1
[1]
  K: 5.7 nM
[2]
  K: 4.7 nM
[3]
  K: 0.76 nM
[4]
  K: 3.2 nM
